Data reported in patent US8440708B2, “Triazole-substituted arylamides as P2X3 and P2X2/3 antagonists” (Roche Palo Alto LLC, priority 2007, dated 2013).

By UniProt entry, the sequences of proteins in these tests, tags left out.
UniProt P49654, whole entry: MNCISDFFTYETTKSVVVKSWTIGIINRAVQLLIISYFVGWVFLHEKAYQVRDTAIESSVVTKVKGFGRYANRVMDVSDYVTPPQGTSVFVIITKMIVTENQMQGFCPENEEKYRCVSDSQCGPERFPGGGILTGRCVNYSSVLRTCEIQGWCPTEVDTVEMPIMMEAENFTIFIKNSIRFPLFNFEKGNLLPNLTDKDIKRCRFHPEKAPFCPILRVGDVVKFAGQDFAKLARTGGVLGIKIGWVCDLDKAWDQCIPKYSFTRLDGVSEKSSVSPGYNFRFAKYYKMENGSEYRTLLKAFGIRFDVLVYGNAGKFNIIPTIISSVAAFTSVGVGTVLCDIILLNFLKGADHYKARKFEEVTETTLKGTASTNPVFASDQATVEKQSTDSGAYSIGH
UniProt P56373, whole entry: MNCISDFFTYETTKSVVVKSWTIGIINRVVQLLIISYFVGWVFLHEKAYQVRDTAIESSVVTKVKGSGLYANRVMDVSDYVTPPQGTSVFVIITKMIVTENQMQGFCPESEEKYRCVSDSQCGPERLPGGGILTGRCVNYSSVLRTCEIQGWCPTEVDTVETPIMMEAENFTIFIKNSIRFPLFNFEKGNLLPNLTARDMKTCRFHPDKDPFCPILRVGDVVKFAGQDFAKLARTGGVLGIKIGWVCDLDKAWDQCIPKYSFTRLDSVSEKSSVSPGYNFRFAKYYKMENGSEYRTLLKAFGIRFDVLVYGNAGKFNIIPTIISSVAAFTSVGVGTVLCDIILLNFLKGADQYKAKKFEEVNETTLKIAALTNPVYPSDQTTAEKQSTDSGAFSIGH
UniProt Q9UBL9, whole entry: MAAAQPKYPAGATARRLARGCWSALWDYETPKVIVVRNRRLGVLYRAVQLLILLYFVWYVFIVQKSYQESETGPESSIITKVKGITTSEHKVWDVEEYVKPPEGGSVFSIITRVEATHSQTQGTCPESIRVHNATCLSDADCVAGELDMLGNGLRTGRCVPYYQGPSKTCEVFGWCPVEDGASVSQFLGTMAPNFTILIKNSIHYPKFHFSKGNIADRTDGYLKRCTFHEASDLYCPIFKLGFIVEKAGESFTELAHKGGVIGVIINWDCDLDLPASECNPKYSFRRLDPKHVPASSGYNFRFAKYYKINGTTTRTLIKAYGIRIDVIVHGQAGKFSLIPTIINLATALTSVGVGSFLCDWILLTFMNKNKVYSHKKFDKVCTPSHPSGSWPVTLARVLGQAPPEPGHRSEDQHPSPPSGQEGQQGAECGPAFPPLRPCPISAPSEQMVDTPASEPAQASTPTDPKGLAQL

Assays:
[1] = target: rat P2X3 receptor (Rattus norvegicus, UniProt P49654); assay: P2X3/P2X2/3 FLIPR (Fluorometric Imaging Plate Reader) Assay, P2X3; details: CHO-K1 cells transfected with rat P2X3; agonist α,β-meATP 1 μM; Table 1
Description: P2X3/P2X2/3 FLIPR (Fluorometric Imaging Plate Reader) Assay
CHO-K1 cells were transfected with cloned rat P2X3 or human P2X2/3 receptor subunits and passaged in flasks. 18-24 hours before the FLIPR experiment, cells were released from their flasks, centrifuged, and resuspended in nutrient medium at 2.5×10^5 cells/ml. The cells were aliquoted into black-walled 96-well plates at a density of 50,000 cells/well and incubated overnight in 5% CO2 at 37° C. On the day of the experiment, cells were washed in FLIPR buffer (calcium- and magnesium-free Hank's balanced salt solution, 10 mM HEPES, 2 mM CaCl2, 2.5 mM probenecid; FB). […]
Test compounds (dissolved in DMSO at 10 mM and serially diluted with FB) or vehicle were added to each well (25 μl of a 4× solution) and allowed to equilibrate for 20 minutes at room temperature. The plates were then placed in the FLIPR and a baseline fluorescence measurement (excitation at 488 nm and emission at 510-570 nm) was obtained for 10 seconds before a 100 μl/well agonist or vehicle addition. […] Fluorescence was measured for an additional 2 minutes at 1 second intervals after agonist addition. A final addition of ionomycin (5 μM, final concentration) was made to each well of the FLIPR test plate to establish cell viability and maximum fluorescence of dye-bound cytosolic calcium. […]

[2] = target: human P2X2/3 receptor (Homo sapiens, UniProt P56373+Q9UBL9); assay: P2X3/P2X2/3 FLIPR (Fluorometric Imaging Plate Reader) Assay, P2X2/3; details: CHO-K1 cells transfected with human P2X2/3; agonist α,β-meATP 5 μM; Table 1

With Cc1ccc(-c2cc(C(=O)NCc3cnc(C)nc3)cc(-n3ncnc3C(F)(F)F)c2)nc1 the “P2X3 pKi” value [1] was 8.53 and the “P2X2/3 pKi” value [2] was 7.71.
